Laboratory results as given in patent US20140350081A1, “INSECT G-COUPLED RECEPTORS USEFUL AS TARGETS FOR INSECTICIDES AND COMPOUNDS AND REAGENTS IDENTIFIED USING THE SAME” (priority 2011, published 2014).
Read-outs that look alike come from different tables or passages of the source.

By UniProt entry, the sequences of proteins in these tests, tags left out.
UniProt H6D5H2, entry or part of it: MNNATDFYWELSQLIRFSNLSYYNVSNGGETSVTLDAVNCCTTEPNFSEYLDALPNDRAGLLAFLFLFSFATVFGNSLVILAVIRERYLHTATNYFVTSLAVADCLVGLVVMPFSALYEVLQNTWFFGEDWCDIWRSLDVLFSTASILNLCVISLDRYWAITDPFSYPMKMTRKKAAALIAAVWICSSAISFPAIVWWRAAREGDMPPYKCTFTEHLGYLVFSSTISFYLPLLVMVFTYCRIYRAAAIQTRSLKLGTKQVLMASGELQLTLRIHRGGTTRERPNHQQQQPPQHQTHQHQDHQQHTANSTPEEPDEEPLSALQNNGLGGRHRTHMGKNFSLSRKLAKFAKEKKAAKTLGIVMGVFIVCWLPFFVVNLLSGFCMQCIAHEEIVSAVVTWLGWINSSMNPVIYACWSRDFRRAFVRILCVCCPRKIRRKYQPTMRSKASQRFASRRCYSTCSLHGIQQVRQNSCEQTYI
UniProt A0ACM8DGL0, entry or part of it: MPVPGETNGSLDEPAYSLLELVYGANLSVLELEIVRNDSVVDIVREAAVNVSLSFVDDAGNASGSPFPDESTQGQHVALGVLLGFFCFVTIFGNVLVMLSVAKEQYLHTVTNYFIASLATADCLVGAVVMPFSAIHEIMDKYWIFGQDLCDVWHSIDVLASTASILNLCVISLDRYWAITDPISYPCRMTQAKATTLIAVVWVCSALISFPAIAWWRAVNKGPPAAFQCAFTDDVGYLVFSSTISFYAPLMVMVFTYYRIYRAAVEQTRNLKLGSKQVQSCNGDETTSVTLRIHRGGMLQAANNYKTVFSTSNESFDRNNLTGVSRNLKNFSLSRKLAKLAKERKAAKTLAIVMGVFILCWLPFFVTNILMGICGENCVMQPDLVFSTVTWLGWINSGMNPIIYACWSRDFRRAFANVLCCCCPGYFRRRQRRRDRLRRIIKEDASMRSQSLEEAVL
UniProt P21728, whole entry: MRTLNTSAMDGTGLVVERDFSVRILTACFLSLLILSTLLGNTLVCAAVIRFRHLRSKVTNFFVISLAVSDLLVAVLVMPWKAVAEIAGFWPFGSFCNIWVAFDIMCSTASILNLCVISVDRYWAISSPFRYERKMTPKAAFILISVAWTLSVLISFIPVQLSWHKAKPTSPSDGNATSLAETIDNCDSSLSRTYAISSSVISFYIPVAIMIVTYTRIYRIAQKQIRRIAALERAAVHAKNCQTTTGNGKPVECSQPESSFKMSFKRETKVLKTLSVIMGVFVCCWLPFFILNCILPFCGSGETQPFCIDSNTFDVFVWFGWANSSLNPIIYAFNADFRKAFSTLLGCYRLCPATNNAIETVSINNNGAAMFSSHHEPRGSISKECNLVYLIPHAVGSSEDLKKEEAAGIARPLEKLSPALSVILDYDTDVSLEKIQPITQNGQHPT

Key:
AaDOP2 [1] = target: T1, AaDOP2 (Aedes aegypti, UniProt H6D5H2); experiment: LOPAC1280 antagonist screen in HEK-CRELuc-Aadop2 cells; assay type: cell-based
AaDOP2 [2] = target: T1, AaDOP2; experiment: HTRF cAMP accumulation concentration response assay (Cisbio Dynamic 2); assay type: cell-based; conditions: IC50 ± S.E.M. (nM)
Isdop2 = Isdop2 (Ixodes scapularis, UniProt A0ACM8DGL0); experiment: cell-based
AaDOP2 [3] = target: T1, AaDOP2; experiment: cell-based
[4] = target: T2, human D1 dopamine receptor (hD1) (Homo sapiens, UniProt P21728); experiment: cAMP accumulation secondary assay, hD1-expressing cells; assay type: cell-based, H. sapiens; conditions: read-out: IC50 value (at 100 nM dopamine for hD1), direct cAMP accumulation
T2 construct: expressed in transfected cells

AaDOP2 [5] = target: T1, AaDOP2
[6] = 10 μM compound, 300 nM dopamine, quadruplicate

CC(C)(C)[C@]1(O)CCN2CC3c4ccccc4CCc4cccc(c43)[C@@H]2C1 (single isomer, unassigned; (+)) [(+)-Butaclamol, 3-(1,1-dimethylethyl)-2,3,4,4a,8,9,13b,14-octahydro-1H-benzo[6,7]cyclohepta[1,2,3-de]pyrido[2,1-a]isoquinolin-3-ol]
% of the SCH23390 effect (AaDOP2 [1]; [6]): 87% | % inhibition of DA activity (Aedes cell-based assay screen) (AaDOP2 [1]; LOPAC1280 screen hits): 87% | IC50 (AaDOP2 [2]): 190 ± 27 nM | % Inhibition (of response to dopamine), Isdop2 screen (Isdop2): 93% | IC50 (AaDOP2 [3]): 480 ± 33 nM

OCCN1CCN(CC/C=C2/c3ccccc3Sc3ccc(C(F)(F)F)cc32)CC1 [cis-(Z)-Flupenthixol, ((Z)-2-(4-(3-(2-(trifluoromethyl)-9H-thioxanthen-9-ylidene)propyl)piperazin-1-yl)ethanol)]
IC50 [4]: 11 nM | Relative fold selectivity for AaDOP2 vs. hD1 (AaDOP2 [5]): 0.55 fold

OCCN1CCN(CCCN2c3ccccc3Sc3ccc(C(F)(F)F)cc32)CC1 [Fluphenazine, 2-[4-[3-[2-(trifluoromethyl)-10H-phenothiazin-10-yl]propyl]piperazin-1-yl]ethanol]
% inhibition of DA activity (Aedes cell-based assay screen) (AaDOP2 [1]): 82% | % of the SCH23390 effect (AaDOP2 [1]): 82%

CC(CN1c2ccccc2Sc2ccccc21)N(C)C (racemic) [Promethazine, (RS)-N,N-dimethyl-1-(10H-phenothiazin-10-yl)propan-2-amine]
inhibition at 10 µM (Isdop2; read-out: % Inhibition (of response to dopamine), Isdop2 screen): 74%

(±)-Butaclamol hydrochloride
% of the SCH23390 effect (AaDOP2 [1]): 81%

CN1C2CCC1CC(OC(c1ccccc1)c1ccccc1)C2 (stereo not drawn) [Benztropine, (3-endo)-3-(diphenylmethoxy)-8-methyl-8-azabicyclo[3.2.1]octane]
% of the SCH23390 effect (AaDOP2 [1]; [6]): 89%

Cc1nc2n(c(=O)c1CCN1CCC(c3noc4cc(F)ccc34)CC1)CCCC2 [Risperidone, 4-[2-[4-(6-fluorobenzo[d]isoxazol-3-yl)-1-piperidyl]ethyl]-3-methyl-2,6-diazabicyclo[4.4.0]deca-1,3-dien-5-one]
% inhibition of DA activity (Aedes cell-based assay screen) (AaDOP2 [1]): 83% | % of the SCH23390 effect (AaDOP2 [1]): 83%
